Measured affinities in a library of Ab-14 heavy chain variants

Source: Li et al. 2023 (doi:10.1038/s41467-023-39022-2), MIT Lincoln Laboratory and A-Alpha Bio; data file from the FLAb repository.

The target is the same throughout: PDVDLGDISGINAS, from the HR2 region of SARS-CoV-2 spike.

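The starting antibody came from a phage panning campaign against this peptide. Designed CDR sequences, proposed from the first random library and measured here. Group labels follow the data file (Ctrl: baseline library sampled from a position-specific scoring matrix, with some repeated check sequences; Rand: our label for a block that the file lists under HC and that is probably the random mutants of the ten best first-round binders; En: ensemble of fine-tuned language models; GP: Gaussian process model; GPLM: also part of the Gaussian process libraries; HC: hill climbing; Gen: genetic algorithm; Gibbs: Gibbs sampling; a sequence that several methods proposed may carry one label only). The scFvs were displayed on barcoded MATa yeast, the peptide on MATalpha yeast. Binding brings cells together so that they mate, and sequencing counts the barcode pairs among the diploids. A regression on co-assayed BCL2-family reference pairs converts the normalised counts of each replicate to an apparent Kd. Each pool was mated in six replicate cultures.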

The variants keep the light chain, the linker and the frameworks of Ab-14 (scFv order VH, three GGGGS repeats, VL).
VH: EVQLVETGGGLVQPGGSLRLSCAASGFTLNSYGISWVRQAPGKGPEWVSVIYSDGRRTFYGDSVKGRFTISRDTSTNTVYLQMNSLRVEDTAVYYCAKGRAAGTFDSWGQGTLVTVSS
VL: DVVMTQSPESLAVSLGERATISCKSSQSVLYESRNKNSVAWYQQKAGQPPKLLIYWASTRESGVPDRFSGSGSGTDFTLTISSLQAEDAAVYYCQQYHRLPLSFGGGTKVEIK

The parent's heavy chain CDRs are GFTLNSYGIS, VIYSDGRRTFYGDSVK, GRAAGTFDS; each variant's own CDRs replace them letter for letter.
Affinities are written as log10 Kd with Kd in nM; a lower number is a better binder.
A mean of the replicates is given; it leaves out those without a signal.
A pair that was not seen in any replicate is written "not detected"; this usually means weak binding, but a binder can also be missed.
Three control strains display no target. For all heavy chain designs, 1% of the pairings with them gave a signal, with a median of 2.08 and one signal in twenty below 0.84, so weak values seen in few replicates may be background.

{"CDR-H1": "GFELNSGMIS", "CDR-H2": "VIYSDGRRTFYGDSVK", "CDR-H3": "GRAAGWFNS", "group": "Rand", "log10 Kd (nM), mean": "not detected", "detected": "0 of 6"}
{"CDR-H1": "GFTINEYGIS", "CDR-H2": "VIYADGNRVEYNDKVK", "CDR-H3": "GMLAGTFDQ", "group": "En_Gibbs", "log10 Kd (nM), mean": "-0.60", "detected": "3 of 6"}
{"CDR-H1": "GFDLNEYGIS", "CDR-H2": "VIYADGKRTAYSDSVK", "CDR-H3": "GNNAGTFDM", "group": "En_Gen", "log10 Kd (nM), mean": "-1.27", "detected": "5 of 6"}
{"CDR-H1": "GFQLNEYGIS", "CDR-H2": "VIYSDGRRTFYGDDVK", "CDR-H3": "GRTAGTFDS", "group": "GP_Gen", "log10 Kd (nM), mean": "-0.39", "detected": "6 of 6"}
{"CDR-H1": "GMDLEEYGIS", "CDR-H2": "VIYADGSRTSYQEKVK", "CDR-H3": "GLVGGMLDV", "group": "En_Gibbs", "log10 Kd (nM), mean": "not detected", "detected": "0 of 6"}
{"CDR-H1": "GFTLNEYGIS", "CDR-H2": "VIYSDGRRTFYGDSVK", "CDR-H3": "GQAAGTFDM", "group": "GPLM_Gen", "log10 Kd (nM), mean": "1.13", "detected": "5 of 6"}
{"CDR-H1": "RFTLNSYGIS", "CDR-H2": "VIYSDGRRTFYGDSVK", "CDR-H3": "GSAAATFRS", "group": "Ctrl", "log10 Kd (nM), mean": "not detected", "detected": "0 of 6"}
{"CDR-H1": "GFTLNSYGIS", "CDR-H2": "VIYSDGRRTFYSDSVK", "CDR-H3": "GKAGGTFDT", "group": "GPLM_HC", "log10 Kd (nM), mean": "1.65", "detected": "6 of 6"}
{"CDR-H1": "GFDLDEYGIS", "CDR-H2": "VIYADGRRTFYADSVK", "CDR-H3": "GTNAGTFLM", "group": "En_HC", "log10 Kd (nM), mean": "0.72", "detected": "6 of 6"}
{"CDR-H1": "GYTLNSYGIS", "CDR-H2": "VIYSDGRRTFYDDSVK", "CDR-H3": "GQLAGTFDS", "group": "GPLM_HC", "log10 Kd (nM), mean": "2.77", "detected": "2 of 6"}
{"CDR-H1": "GFTLNDYGIS", "CDR-H2": "VIYSDGRRTFYGDSVK", "CDR-H3": "GRAAGTFED", "group": "GP_HC", "log10 Kd (nM), mean": "1.26", "detected": "6 of 6"}
{"CDR-H1": "GFNLNSYGIS", "CDR-H2": "VIYSDGRRTFYADKVK", "CDR-H3": "GRQAGTFDS", "group": "GP_Gen", "log10 Kd (nM), mean": "not detected", "detected": "0 of 6"}
{"CDR-H1": "GFTLESYGIS", "CDR-H2": "VIYSDGRRTFYDDSVK", "CDR-H3": "GQVAGTFDS", "group": "GP_HC", "log10 Kd (nM), mean": "0.22", "detected": "6 of 6"}
{"CDR-H1": "GFDLNEYGIS", "CDR-H2": "VIYADGSRTYYADSVK", "CDR-H3": "GEVAGSFDQ", "group": "En_HC", "log10 Kd (nM), mean": "-0.37", "detected": "6 of 6"}
{"CDR-H1": "GFTLENYGIS", "CDR-H2": "VIYSDGRRTFYGDSVK", "CDR-H3": "GTASGTFDS", "group": "Ctrl", "log10 Kd (nM), mean": "2.38", "detected": "1 of 6"}
{"CDR-H1": "GFELNEYGIS", "CDR-H2": "VIYSDGRRTFYGDSVK", "CDR-H3": "GRQAGTFDT", "group": "GPLM_Gibbs", "log10 Kd (nM), mean": "0.12", "detected": "6 of 6"}
{"CDR-H1": "GFSLDEYGIS", "CDR-H2": "VIYADGMRQSYCENVK", "CDR-H3": "GVHGCTFGL", "group": "En_Gibbs", "log10 Kd (nM), mean": "not detected", "detected": "0 of 6"}
{"CDR-H1": "GFDLEDYGIS", "CDR-H2": "VIYADGKRQQYAQKFK", "CDR-H3": "GTIGGTFVD", "group": "En_Gibbs", "log10 Kd (nM), mean": "1.59", "detected": "6 of 6"}
{"CDR-H1": "GFDLAEYGIS", "CDR-H2": "VIYADGQRKSYANKFK", "CDR-H3": "GRLSGTNIM", "group": "En_Gibbs", "log10 Kd (nM), mean": "not detected", "detected": "0 of 6"}
{"CDR-H1": "GFDLNEYGIS", "CDR-H2": "VIYADGKRTFYADSVK", "CDR-H3": "GENAGTFDV", "group": "En_Gen", "log10 Kd (nM), mean": "-0.58", "detected": "6 of 6"}
{"CDR-H1": "GFELNSYGIS", "CDR-H2": "VIYADGRRTFYGDSVK", "CDR-H3": "GRAAGTFDK", "group": "GPLM_Gen", "log10 Kd (nM), mean": "0.14", "detected": "6 of 6"}
{"CDR-H1": "KFKLNSYGIS", "CDR-H2": "VIYSDGRRTFYADSVK", "CDR-H3": "GRNAGTFDS", "group": "GP_Gibbs", "log10 Kd (nM), mean": "3.31", "detected": "2 of 6"}
{"CDR-H1": "GFTLNSYGIS", "CDR-H2": "VIYSDGRRTFYGDSVK", "CDR-H3": "GRAAKTFDW", "group": "Ctrl", "log10 Kd (nM), mean": "not detected", "detected": "0 of 6"}

Excerpt, the first 3 entries:

| CDR-H1 | CDR-H2 | CDR-H3 | group | log10 Kd (nM), mean | detected |
|---|---|---|---|---|---|
| GFELNSGMIS | VIYSDGRRTFYGDSVK | GRAAGWFNS | Rand | not detected | 0 of 6 |
| GFTINEYGIS | VIYADGNRVEYNDKVK | GMLAGTFDQ | En_Gibbs | -0.60 | 3 of 6 |
| GFDLNEYGIS | VIYADGKRTAYSDSVK | GNNAGTFDM | En_Gen | -1.27 | 5 of 6 |

The authors' rule: three or more of the six replicates give a measured affinity, fewer mean a poor binder.
Of ten entries with the parent sequence, four were seen in most replicates (averages 0.34 to 2.37), three in one and three in none, so single entries are noisy.
The range of this assay differs from that of the first round, and the authors advise against merging the two.